Data taken from US3997543A (priority 1974, dated 1976).

System: Mice Eyes
Test: Antagonism of mydriasis induced by phencyclidine in mice eyes
Assay type: in vivo
Conditions: Conc. 2 . 10^-1 M; mydriasis by 10^-2 M phencyclidine HCl; >15 equals blank

CC(=O)OC1C[N+]2(C)CCC1CC2 (racemic)
Reversal of Mydriasis Time: > 15 min
